The text below walks through data of publication PMC7093396 (Scientific Reports, 2020).

The subject of this data set is Nc1nc2c(c(=O)[nH]1)N=C(CNc1ccc(C(=O)N[C@@H](CCC(=O)O)C(=O)O)cc1)CN2. In words: purified protein. The conditions noted are these: NADPH.
One may read the Km as the concentration of substrate that gives half-maximal velocity. In general, kcat refers to the maximal rate divided by the concentration of active sites. Broadly, the kcat/Km is the turnover number divided by the Michaelis constant. For “Bd DHFR (dihydrofolate reductase, Bd3231) (Bdellovibrio bacteriovorus HD100)”, the Km is on record as 5.6 ± 1.9 µM, the kcat is 299 s⁻¹ and the catalytic efficiency (kcat/Km) was found to be 5.4e+07 M⁻¹ s⁻¹.

On to “Bd DHFR_F51I (dihydrofolate reductase, Bd3231) (Bdellovibrio bacteriovorus HD100; F51I)”, for which the Michaelis-Menten constant (Km) was 4.9 ± 1.1 µM, the kcat was 73 s⁻¹ and the specificity constant (kcat/Km) turned out to be 1.5e+07 M⁻¹ s⁻¹.

For “Bd DHFR_M29L (dihydrofolate reductase, Bd3231) (Bdellovibrio bacteriovorus HD100; M29L)”, the Km was 3.4 ± 0.6 µM, the catalytic constant (kcat) is 25 s⁻¹ and the kcat/Km stood at 7.3e+06 M⁻¹ s⁻¹.

Consider “Bd DHFR_M29L_F51I (dihydrofolate reductase, Bd3231) (Bdellovibrio bacteriovorus HD100; F51I/M29L)”, for which the Michaelis constant (Km) came to 9.2 ± 1.2 µM, the kcat is 109 s⁻¹ and the specificity constant (kcat/Km) was 1.2e+07 M⁻¹ s⁻¹.
